This assay concerns the target BACE1 (Homo sapiens (Human), UniProt P56817). The assay can be described thus: BACE1 FP assay. The format is biochemical. Conditions: pH 4.5. The procedure:
BACE1 activity can be assessed in an AlphaScreen® assay. Compounds to be assessed (e.g. compounds as described in the above examples) are serially diluted 1:4 in DMSO, then plated by diluting 10 μL of compound with 40 μl of assay buffer (1×PBS, 0.01% Tween-20, pH 7.0, 0.05% BSA). The diluted compound is transferred (4 μL per well) to a 386 well assay plate and 4 μL of BACE1 enzyme ([…]) is added and incubated for 15 minutes. This assay uses a probe that is a BACE1 binding sight ligand linked to biotin, which can be displaced by test compound dependent on compound binding affinity. This of biotinylated probe (4 μL) is added and incubated for 1 hour, followed with 4 μL of donor and acceptor bead mixture and incubated for 2 hours. The fluorescent signal is read on a plate reader and the value as a function of compound concentration is used to determine the IC50. Compounds are also assessed for BACE1 and Cathepsin D activity using an FP Assay. Compounds to be assessed (e.g. compounds as described in the above examples) are serially diluted 1:3 with DMSO and each concentration point is transferred to a 96 well plate, 6 μL per well, followed by addition of 194 μL of assay buffer (100 mM sodium acetate, pH 4.5 with 0.001% Tween-20). […]

By UniProt entry, the sequences of proteins in these tests, tags left out. Residues count along the entry.
UniProt P56817, 46-501: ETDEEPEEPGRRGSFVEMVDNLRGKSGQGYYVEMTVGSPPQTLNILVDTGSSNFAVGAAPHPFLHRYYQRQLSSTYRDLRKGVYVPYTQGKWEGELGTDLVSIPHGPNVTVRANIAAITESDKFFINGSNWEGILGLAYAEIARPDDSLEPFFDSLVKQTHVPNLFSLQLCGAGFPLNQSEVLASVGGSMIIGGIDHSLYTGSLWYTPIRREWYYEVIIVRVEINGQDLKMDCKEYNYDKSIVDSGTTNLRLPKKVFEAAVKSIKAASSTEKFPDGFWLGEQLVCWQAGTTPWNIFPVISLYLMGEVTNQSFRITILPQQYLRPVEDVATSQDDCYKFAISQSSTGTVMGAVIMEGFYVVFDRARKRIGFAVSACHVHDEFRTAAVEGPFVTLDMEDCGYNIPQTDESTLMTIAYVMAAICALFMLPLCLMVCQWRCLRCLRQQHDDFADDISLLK

SMILES strings stand for the structures. pIC50: −log10 of the molar value.

Regarding `COc1cnc(C(=O)Nc2ccc(F)c(C3(C)N=C(N)OC4(CCC4)C3(F)F)c2)cn1` (stereo not shown) [Compound 9-164, N-(3-(6-amino-9,9-difluoro-8-methyl-5-oxa-7-azaspiro[3.5]non-6-en-8-yl)-4-fluorophenyl)-5-methoxypyrazine-2-carboxamide], the pIC50 – broadly, the IC50 on a negative log10 scale, so that one unit is a factor of ten – was 6.33.

The values above are taken from patent US9493485B2, “Spirocyclic dihydro-thiazine and dihydro-oxazine BACE inhibitors, and compositions and uses thereof” (Imago Pharmaceuticals, Inc., priority 2012, dated 2016).
